Antibody variant affinities, Ab-14 light chain, assay B

Data: MIT Lincoln Laboratory AlphaSeq set, Li et al. 2023, doi:10.1038/s41467-023-39022-2, as distributed in FLAb.

Antigen: PDVDLGDISGINAS, a 14-residue peptide of the SARS-CoV-2 spike HR2 region.

Parent scFv Ab-14: VH joined to VL by a (GGGGS)3 linker. Changes lie in the light chain CDRs alone.
VH: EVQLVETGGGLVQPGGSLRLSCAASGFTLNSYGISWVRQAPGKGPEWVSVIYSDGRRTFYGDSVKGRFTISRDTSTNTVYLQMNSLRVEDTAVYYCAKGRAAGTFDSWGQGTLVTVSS
VL: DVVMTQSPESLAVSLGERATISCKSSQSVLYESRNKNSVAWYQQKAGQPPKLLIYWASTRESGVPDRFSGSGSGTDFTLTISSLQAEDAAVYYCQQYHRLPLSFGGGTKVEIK

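The parent was found by panning a naive human phage display library on the peptide. These sequences belong to a second round, designed from the earlier measurements on random variants of the parent. Group labels follow the data file (En: ensemble of fine-tuned language models; GP: Gaussian process model; HC: hill climbing; Gen: genetic algorithm; Gibbs: Gibbs sampling; a sequence that several methods proposed may carry one label only). In AlphaSeq, yeast of one mating type display the scFv and yeast of the other type display the target. Mating (16 h, 30 °C) was followed by selection of diploids and sequencing of their barcodes. Each replicate has its own calibration line, from reference interactions of the BCL2 family. There are six technical replicates.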

Each variant is given by its three light chain CDRs, as the data file delimits them; those of the parent are KSSQSVLYESRNKNSVA, WASTRES, QQYHRLPLS.
This list holds designs with more than six substitutions.
The Kd shown is the geometric mean over detected replicates; a lower Kd is a better binder.
"no signal" marks a missing value. The strain was present, yet no cells mated with the target were sequenced in any replicate, which points to weak or no binding.
Entries are sorted by rising average, undetected variants last.

- KLEQSMLYESRNDNSVA | HASMRES | QQYHRLPLF [GP_Gibbs]: 670 pM (6 of 6 replicates)
- KMSMSELYEDRNQNSVA | SASQRLD | QQYHRLPLS [GP_Gibbs]: 980 pM (6 of 6 replicates)
- KMPQSWWYESRMKQSVA | NASERES | QQYHRLPLS [GP_Gibbs]: 1.6 nM (6 of 6 replicates)
- KIGGVTNGISRSKNSVA | EQSTRYD | QQYDRLPLS [En_HC]: 1.6 nM (6 of 6 replicates)
- KCQQSQLYESRNKNAVA | NASTRLD | QQYHRLPLS [GP_Gibbs]: 1.7 nM (6 of 6 replicates)
- HITMGMYVSGRHMSNIA | QAEERAK | QQYDRLPLI [En_Gen]: 2.2 nM (6 of 6 replicates)
- KFMYSGEYQMHEQNNIA | QGNIKTV | QQYFRLPIS [En_Gibbs]: 2.6 nM (6 of 6 replicates)
- SVSNLGMVPSVWENSIA | DTTIVEE | QQYSRLPLL [En_Gibbs]: 2.7 nM (6 of 6 replicates)
- KASQSEPYEDRNKNSVA | NASYRCS | QQYHRLPLS [GP_Gibbs]: 2.7 nM (6 of 6 replicates)
- KITATMRFEQKQSNNIA | EVTTRSK | QQYYRLPLS [En_Gen]: 2.8 nM (6 of 6 replicates)
- KLEWSNLYESRNCNSVA | NASTREE | QQYHRLPLS [GP_Gibbs]: 3.0 nM (6 of 6 replicates)
- QFHSTMAGDQRNDHSIA | NATWAVP | QQYFRLPLS [En_Gibbs]: 3.5 nM (6 of 6 replicates)
- KIGMTLNTLMHQKNNVA | DLVTREN | QQYFRLPLS [En_Gen]: 3.7 nM (6 of 6 replicates)
- KLRISTAYLSENKNSVA | ELSTRGS | QQYFRLPLS [En_HC]: 4.4 nM (6 of 6 replicates)
- KSSQSWLGMDWNKNSVA | QASQRMS | QQYHRLPLS [GP_Gibbs]: 7.7 nM (6 of 6 replicates)
- KISYMGEHFSTNHSAIA | QASTREQ | QQYYRLPIS [En_HC]: 9.6 nM (6 of 6 replicates)
- MISQVMNTLTRNGNNVA | DLQEREH | QQYFRLPLS [En_Gen]: 11 nM (6 of 6 replicates)
- MISQLYNMGQFAINSVA | QASERCN | QQYDRLPLI [En_Gen]: 15 nM (6 of 6 replicates)
- KLSQSVNMTGKNKNSVA | ELSFRED | QQYERLPLS [En_HC]: 16 nM (6 of 6 replicates)
- MISNVMNTLTRQGNNVA | DLAEREK | QQYFRLPLS [En_Gen]: 18 nM (6 of 6 replicates)
- MVTQMAMSGMTNKRSVA | NAETREN | QQYHRLPLI [En_Gen]: 29 nM (6 of 6 replicates)
- IVSQLMLWGLHAKNSIA | EAELRLN | QQYDRLPLI [En_Gen]: 33 nM (2 of 6 replicates)
- MIGQMLGWESNKIHSVA | QANLRED | QQYDRLPLE [En_Gen]: 44 nM (6 of 6 replicates)
- IVSQLMLWGWSAKNSIA | EAVTRLN | QQYDRLPLF [En_Gen]: 74 nM (1 of 6 replicates)
- TIGSTLMYGMRNRSNVA | EVSERLN | QQYDRLPLL [En_Gen]: 92 nM (4 of 6 replicates)
- MISQLYNMGSFAINSVA | QASYRNE | QQYDRLPLM [En_Gen]: 98 nM (6 of 6 replicates)
- SIPSEMNQQQTQVNSVA | GEQHTAR | QQYGRLPLS [En_Gibbs]: 170 nM (4 of 6 replicates)
- KLSKFTQNWGLNRNHIA | EESTKIM | QQYFSLPLY [En_Gibbs]: 450 nM (6 of 6 replicates)
- SLGLVTMLEYANRNNVA | NNSTREE | QQYDRLPLS [En_Gen]: 4.7 µM (1 of 6 replicates)
- MIYGADRELGRATNSIA | DNVTRYN | QQYERLPLS [En_Gen]: 6.0 µM (2 of 6 replicates)
- KLSMSVRMESFNKDNVA | ENSTREA | QDYHRLPLS [En_HC]: no signal (0 of 6 replicates)

The first 2 entries again:

CDR-L1	CDR-L2	CDR-L3	group	Kd	replicates with signal
KLEQSMLYESRNDNSVA	HASMRES	QQYHRLPLF	GP_Gibbs	670 pM	6 of 6
KMSMSELYEDRNQNSVA	SASQRLD	QQYHRLPLS	GP_Gibbs	980 pM	6 of 6

Of ten entries with the parent sequence, four were seen in most replicates (averages 2.2 nM to 240 nM), three in one and three in none, so single entries are noisy.
The range of this assay differs from that of the first round, and the authors advise against merging the two.
As a blank, each scFv also met three strains without target: over all light chain designs, 4% of these pairings were detected, typically at 430 nM and seldom below 38 nM.
In the paper, a design with two or fewer of six values counts as a poor binder.